The results in this text go back to ChEMBL document CHEMBL4680190, “Imidazo[2,1-b] [1,3,4]thiadiazoles with antiproliferative activity against primary and gemcitabine-resistant pancreatic cancer cells” (Eur J Med Chem, 2020).

Chains of the proteins cited; added tags and fusions are not shown.
UniProt Q05397, whole entry, looked up: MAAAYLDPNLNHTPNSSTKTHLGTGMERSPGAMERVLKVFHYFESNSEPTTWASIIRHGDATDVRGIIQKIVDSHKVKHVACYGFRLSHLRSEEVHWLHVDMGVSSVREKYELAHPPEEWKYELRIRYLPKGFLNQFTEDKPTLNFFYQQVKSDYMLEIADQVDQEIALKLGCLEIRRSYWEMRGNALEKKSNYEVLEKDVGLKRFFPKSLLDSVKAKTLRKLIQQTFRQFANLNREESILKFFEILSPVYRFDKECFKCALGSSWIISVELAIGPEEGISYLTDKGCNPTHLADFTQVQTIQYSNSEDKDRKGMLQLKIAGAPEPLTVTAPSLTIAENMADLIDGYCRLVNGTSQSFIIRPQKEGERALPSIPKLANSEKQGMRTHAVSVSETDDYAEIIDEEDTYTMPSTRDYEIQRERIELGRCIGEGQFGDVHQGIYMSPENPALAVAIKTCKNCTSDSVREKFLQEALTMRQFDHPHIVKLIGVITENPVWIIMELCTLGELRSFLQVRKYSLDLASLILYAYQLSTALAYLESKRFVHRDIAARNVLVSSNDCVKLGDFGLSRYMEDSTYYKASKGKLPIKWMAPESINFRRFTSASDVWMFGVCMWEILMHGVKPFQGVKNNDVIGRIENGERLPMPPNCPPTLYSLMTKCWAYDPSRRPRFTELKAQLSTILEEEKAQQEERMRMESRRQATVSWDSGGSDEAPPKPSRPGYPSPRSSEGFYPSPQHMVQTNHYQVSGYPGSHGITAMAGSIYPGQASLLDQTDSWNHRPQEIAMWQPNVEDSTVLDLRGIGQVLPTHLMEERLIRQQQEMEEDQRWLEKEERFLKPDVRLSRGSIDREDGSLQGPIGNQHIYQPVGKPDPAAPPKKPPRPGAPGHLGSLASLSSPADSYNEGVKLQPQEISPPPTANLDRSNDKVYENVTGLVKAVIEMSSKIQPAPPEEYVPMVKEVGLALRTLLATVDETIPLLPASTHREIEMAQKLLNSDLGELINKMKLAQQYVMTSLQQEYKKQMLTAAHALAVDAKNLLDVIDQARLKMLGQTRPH

Holding throughout (format): cell-based
For assay [1], the target named is Focal adhesion kinase 1 (Homo sapiens) (UniProt Q05397). As to the kind of experiment: Inhibition of PTK2 in human Panc-1 cells assessed as fold inhibition of PTK2 phosphorylation at Y397 residue at 5XIC50 incubated for 24 hrs by ELISA relative to control. (In an ELISA, binding on a coated surface is turned into a signal by an enzyme label.)
For assay [2] the target is unchanged. As to the kind of experiment: Inhibition of PTK2 in human CAPAN-1 cells assessed as fold inhibition of PTK2 phosphorylation at Y397 residue at 5XIC50 incubated for 24 hrs by ELISA relative to control.
For assay [3] the target is unchanged. Put plainly: Inhibition of PTK2 in human SUIT-2 cells assessed as inhibition of PTK2 phosphorylation at Y397 residue at 5XIC50 incubated for 24 hrs by ELISA relative to control.
For assay [4] the target is unchanged. Put plainly: Inhibition of PTK2 in human SUIT-2 cells at 5XIC50 incubated for 24 hrs by PamChip analysis relative to control.

In the case of `c1ccc2c(-c3nn4cc(-c5ccsc5)nc4s3)c[nH]c2c1`, the fold change (FC) in assay [1], in assay [2] and in assay [3] was 0.4 each time.
In the case of `Cn1cc(-c2nn3cc(-c4ccsc4)nc3s2)c2ccccc21`, the fold change (FC) in assay [1] was 0.4; in assay [2], 0.4; in assay [3], 0.4; in assay [4], > 2.
